Nrf2 activator: activates Nrf2 signaling. hit rate 0.31% among 410,000. Potency, µM (titrated, usually from 46.1 µM), inactives show at the highest dose activation, actives largely listed as activators. AREc32 ARE-luciferase reporter (MCF7-derived line), luminescence, 24 h; note: potency is the fitted concentration of half-maximal effect; % of control where 0% means no effect; nearly all actives have a fitted effect of over 65% in size
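AREc32_Fluc, 1000 cells/well, OPTI-MEM + 5% FBS, o/n 37 deg C 5% CO2; 23 nL cpd by pin tool, 24 hr; Steady-Glo 30 min RT, luminescence.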
p53 reactivation: mutant p53 re-activation in reporter cells; H1299 p53-A138V BP100-luciferase reporter, luminescence, 24 h; Potency, µM (doses to about 92.2 µM), without a hit: top-dose activity change, positive = activation, hits mostly activators; hit rate 0.063% among 320,000; AID 504706; note: potency is the fitted concentration of half-maximal effect; % of control where 0% means no effect; nearly all actives have a fitted effect of over 45% in size
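H1299 (p53-null), stable ts p53-A138V + BP100-Luc; 1000 cells/well, Opti-MEM/10% FBS; cpd 4 pt, 1:5; 24 h, 37 deg C, 5% CO2; detection reagent 10 min RT; luminescence.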
miR-21 reporter: raises the signal of a miR-21 reporter | HeLa miR-21 FLuc reporter, luciferase, 48 h | Potency, µM (doses to about 38.3 µM), for the others: at the highest dose reporter change, positive = more light | 340,000 tested, under 10 active | AID 2288; active = well fitted rising curve with a large enough effect; inconclusive = small, poorly fitted or top-dose-only effect; inactive = no such curve, though single readings can be large or run the other way;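 also: % of control where 0% means no effect; miR-21 action dims this reporter so a rising signal means less miR-21 action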
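Compounds were titrated across several concentrations (up to approximately 40 uM) and incubated 48 hours with HeLa miR-21-FLuc reporter cells (miR-21 target sequence downstream of FLuc, endogenous miR-21). Readout was firefly luciferase luminescence after lytic detection reagent.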
Nrf2 inh: blocks Nrf2 signaling. A549 ARE-Fluc reporter, luciferase luminescence, 18-24 h. Potency, µM (highest dose often 46 µM), without a hit: top-dose activity change, negative = inhibition, actives largely listed as inhibitors. hit rate 2.1% among 360,000; note: potency is the fitted concentration of half-maximal effect; % is set by controls: 0 for no effect and ±100 for the full control effect; nearly all actives have a fitted effect of over 60% in size
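Cells were seeded and rested 2 h, then exposed to compounds for 18-24 h. CellTiter-Fluor was read first as a viability measure. BugLite was added 15 min before the final luminescent read of ARE-luciferase activity in A549 cells.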
A549 tox: kills or reduces viability of A549 cells in Nrf2 counter-screen | A549 ARE-Fluc cells, CellTiter-Fluor viability, 18-24 h | Potency, µM (top dose mostly 46 µM), for inactives: at the top dose activity change, negative = cytotoxicity, usual class: inhibitors | hit rate 0.16% among 390,000; note: potency is the fitted concentration of half-maximal effect; % is set by controls: 0 for no effect and ±100 for the full control effect
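Cytotoxicity counterscreen: CellTiter-Fluor fluorescence was measured in A549 ARE_Fluc cells after 18-24 h of compound exposure in a concentration series. The subsequent BugLite luminescent read reports ARE-luciferase activity.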
ClpP mod: qHTS Assay for Activators of ClpP; ATP-dependent Clp protease proteolytic subunit (Bacillus subtilis (strain 168)), P80244; purified B. subtilis ClpP, FRET peptide cleavage, 20 min; Potency, µM (highest dose often 57.5 µM), for inactives: at the top dose activity change, negative = active; hit rate 1.9% among 340,000; AID 651965, 2013; active = well fitted falling curve with a large enough effect; inconclusive = small, poorly fitted or top-dose-only effect; inactive = no such curve, though single readings can be large or run the other way; note: potency is the fitted concentration of half-maximal effect; the source files actives as falling curves though it sought activators and does not explain the sign; nearly all actives have a fitted effect of over 65% in size
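ClpP 10 microg/mL final, pH 8 Tris/KCl buffer with BSA, glycerol, Tween-20; compound pinned in; FRET-FV substrate; RT 20 min; Ex320/Em430; ΔFRET vs ADEP 5.8 microM, DMSO, no enzyme.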
* marks the source's active call; other numbers are inactive results; ? = inconclusive; . = no result. Sampled rows, rich in hits. Any-hit rate of the full collection: about 3.7%. Unless noted, calls come from the whole dose curve; as a rule, active = well fitted curve in the direction sought with a large enough effect; inconclusive = small, poorly fitted or top-dose-only effect, or another doubt; inactive = no such curve, though single readings can be large; an effect the other way counts as inactive or inconclusive.

Chains of the proteins cited; added tags and fusions are not shown.
ATP-dependent Clp protease proteolytic subunit (Bacillus subtilis (strain 168)), P80244, UniProt P80244, whole entry, looked up: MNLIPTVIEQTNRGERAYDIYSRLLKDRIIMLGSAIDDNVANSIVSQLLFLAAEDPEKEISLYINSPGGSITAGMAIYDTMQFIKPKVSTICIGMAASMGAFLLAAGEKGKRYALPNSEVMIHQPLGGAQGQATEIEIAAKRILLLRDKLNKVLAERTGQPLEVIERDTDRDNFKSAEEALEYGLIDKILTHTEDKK

The line under a structure holds: Nrf2 activator, p53 reactivation, miR-21 reporter, Nrf2 inh, A549 tox, ClpP mod
1. CCOC(=O)c1ccc(NC(=O)c2nc[nH]c2C(=O)N[C@H](C)c2ccccc2)cc1
  -4.3%, -2.5%, -0.8%, 16.4µM*, ?, ?
2. COc1ccccc1CNC(=O)CSc1ncc2c(n1)-c1cc(Cl)ccc1N(Cc1ccccc1)S2(=O)=O
  7.8%, ., 1.3%, ?, 4.2%, -24.1%
3. COc1ccc(NC(=O)C(OC(=O)CNC(=O)c2ccccc2)c2ccccc2)c(C)c1 (stereo not given)
  ., ., ., 26.1%, -1.4%, .
4. CCCn1c(N)c(C(=O)CSc2nnc(Cc3cccs3)n2C2CC2)c(=O)n(C)c1=O
  3.1%, -9.9%, ., 11.6µM*, -3.9%, 1.5%
5. COc1cc(OC)c(OC)cc1/C=N/NC(=S)NCCN1CCOCC1
  3.2%, -7.2%, -18.9%, 7.0%, 2.6%, .
6. COc1cc(OC)c(OC)cc1/C=N/NC(=S)NCC1CCCO1 (stereo not given)
  -0.4%, -0.7%, -7.0%, 4.3%, 1.0%, 31.6µM*
7. Cn1c2c(c(=O)n3ncnc13)CCCC2
  -0.9%, 0.8%, 0.2%, -0.3%, 2.8%, 22.4µM*
8. COc1ccc(-c2nc3ccccc3c(=O)n2Cc2ccccc2)cc1OCc1ccc(NC(C)=O)cc1
  ., ., ., 7.2%, 0.6%, .
9. Cc1ccc2c(Sc3ccccc3)c(C(=O)NCc3ccccc3F)[nH]c2c1
  0.0%, ., 1.3%, 0.4%, 0.0%, -8.9%
10. Fc1ccc(NC(=S)N2CCN(C/C=C/c3ccccc3)CC2)c(F)c1
  5.9%, -3.9%, 10.7%, 20.6µM*, -30.0%, -1.8%
11. CCN(CC)S(=O)(=O)c1ccc(C)c(NC(=S)NNC(=O)C2CC2)c1
  0.0%, -4.8%, -4.1%, 5.6%, -3.4%, 25.1µM*
12. CCN(CC)S(=O)(=O)c1ccc(C)c(NC(=S)N2CCN(C/C=C/c3ccccc3)CC2)c1
  0.7%, 5.0%, 20.8%, 11.6µM*, -16.0%, -0.3%
13. Cc1nn2cc(-c3ccc(OC(C)C)cc3)nc2s1
  -1.9%, ., ?, ?, 0.5%, 1.9%
14. COc1ccc(CC(=O)NCCc2csc(-c3ccc(C(F)(F)F)cc3)n2)cc1
  0.3%, ., 3.6%, ., 5.0%, 6.3%
15. COc1ccc(-c2nc(CCNC(=O)Cc3ccc(F)cc3)cs2)cc1
  3.8%, ., -1.7%, ., 20.0%, 22.4µM*
16. COc1ccc(CCC(=O)NCCc2csc(-c3ccc(F)cc3)n2)cc1
  6.4%, ., -17.8%, ., 4.6%, -3.8%
17. COc1cc(OC)cc(C(=O)NCCc2csc(-c3ccc(C(F)(F)F)cc3)n2)c1
  -0.4%, ., 10.0%, ., 7.7%, 31.6µM*
18. O=C(NCCc1csc(-c2ccccc2)n1)c1cccs1
  11.1%, -4.2%, -4.9%, -5.6%, 23.6%, ?
19. COc1ccc(-c2nc(CCNC(=O)c3cccs3)cs2)cc1OC
  3.0%, ., -5.8%, ., -0.1%, 28.2µM*
20. COc1ccc(-c2nc(Cn3c(SCc4ccc(C)cc4)nc4cccnc43)c(C)o2)cc1OC
  -1.5%, ., ?, ?, -29.7%, -6.0%
21. Cc1oc(-c2ccccc2Cl)nc1Cn1c(SCc2cccc(F)c2)nc2cccnc21
  -1.3%, ., 4.9%, ?, -21.7%, 4.6%
22. Cc1oc(-c2cccc(Cl)c2)nc1Cn1c(SCc2ccc(F)cc2)nc2cccnc21
  0.3%, ., -7.8%, 18.4µM*, -21.9%, 4.6%
23. COc1ccc(-c2nc(Cn3c(SCc4cccc(F)c4)nc4cccnc43)c(C)o2)cc1
  -1.2%, ., 4.3%, 20.6µM*, -24.6%, 5.0%
24. COc1ccc(-c2nc(Cn3c(SCc4ccc(F)cc4)nc4cccnc43)c(C)o2)cc1
  -0.4%, ., 0.3%, 18.4µM*, ?, -25.0%
25. COc1ccc(-c2nc(Cn3c(SCc4ccccc4F)nc4cccnc43)c(C)o2)cc1
  -1.1%, ., -8.5%, ?, -24.8%, ?
26. COc1cc(CNCCSc2nnnn2C)ccc1OCc1ccc(C)cc1
  8.5%, ., -46.8%, 17.9%, -1.5%, -1.8%
27. O=C(Nc1cccc2cccnc12)c1ccc(F)cc1
  12.6µM*, ., -32.4%, ?, 1.2%, 0.2%
28. O=C(NC(=S)Nc1cccc2cccnc12)c1ccccc1
  4.47µM*, 1.8%, -18.9%, ?, -2.2%, 2.0%
29. O=C(NC(=S)Nc1cccc2cccnc12)c1cccs1
  8.91µM*, 3.3%, 0.7%, 6.3%, -3.0%, 3.7%
30. N#Cc1ccccc1NC(=S)NC(=O)c1cccs1
  15.8µM*, 25.2%, -26.7%, 1.2%, 1.9%, -7.1%
31. C[C@H](CO)N1C[C@H](C)[C@H](CN(C)Cc2cccc(C(F)(F)F)c2)OCc2ccccc2-c2c(n(C)c3ccccc23)C1=O
  0.7%, ., ., ., ., 1.3%
32. O=C(CSc1cn(CCNC(=O)c2c(F)cccc2F)c2ccccc12)Nc1ccc2c(c1)OCCO2
  0.3%, ., 8.2%, -18.2%, -5.2%, 0.9%
33. N#Cc1c(/N=C/c2ccc(-c3ccc(C(=O)O)c(Cl)c3)o2)sc2c1CCCC2
  4.7%, 2.3%, ., 3.9%, -0.3%, 35.5µM*
34. N#Cc1c(/N=C/c2ccc(-c3ccccc3C(=O)O)o2)sc2c1CCCC2
  20.5%, ?, -45.2%, ?, -1.9%, -1.0%
35. COc1cccc(-n2ccnc2SCC(=O)Nc2cccc3ccccc23)c1
  3.0%, ., -0.3%, ., 6.7%, -1.6%
36. CC(C)Cc1nn2cc(-c3cccc(Br)c3)nc2s1
  0.3%, ., 24.9%, ?, 0.7%, 0.0%
37. NS(=O)(=O)c1cccnc1Nc1c(Cl)cccc1Cl
  -0.3%, 1.5%, -6.8%, ?, ?, 28.2µM*
38. CSc1cnc2c(=O)n(C)c(=O)[nH]c2n1
  -0.2%, 2.5%, -2.9%, 1.6%, 7.0%, 15.8µM*
39. CCOc1cc(/C=C2\SC(=O)N(CC(=O)Nc3ccccc3F)C2=O)cc([N+](=O)[O-])c1O
  3.6%, -3.3%, -1.0%, 18.4µM*, ?, .
40. O=[S+]([O-])(c1ccc2nsnc2c1)N1CCN([S+](=O)([O-])c2c(F)cccc2F)CC1
  ., ., ., 0.2%, -1.9%, .
41. COc1cccc(NS(=O)(=O)c2ccc3[nH]cc(C(=O)NCCC(C)C)c(=O)c3c2)c1
  3.5%, -13.8%, 20.4%, 16.4µM*, -14.7%, -11.2%
42. CC(C)CCNC(=O)c1c[nH]c2ccc(S(=O)(=O)Nc3cccc(C(F)(F)F)c3)cc2c1=O
  0.2%, ., -1.7%, ., 2.0%, -14.7%
43. COC(=O)C1=C(C)N(c2cc(Cl)cc(Cl)c2)C(=O)C1
  ?, -7.4%, 22.7%, 9.2µM*, -15.0%, -2.6%
44. COC(=O)C1=C(C)N(c2ccc(C(=O)OC)cc2)C(=O)C1
  2.6%, 16.4%, -13.5%, -13.3%, -7.5%, 0.8%
45. O=C1CCCN1c1ccc(S(=O)(=O)Oc2ccc(Cl)cc2)cc1[N+](=O)[O-]
  0.0%, 0.5%, 18.0%, 7.31µM*, ?, -0.9%

Five consecutive compounds from above, for reference:
The line under a structure holds: Nrf2 activator, p53 reactivation, miR-21 reporter, Nrf2 inh, A549 tox, ClpP mod
31. C[C@H](CO)N1C[C@H](C)[C@H](CN(C)Cc2cccc(C(F)(F)F)c2)OCc2ccccc2-c2c(n(C)c3ccccc23)C1=O
  0.7%, ., ., ., ., 1.3%
32. O=C(CSc1cn(CCNC(=O)c2c(F)cccc2F)c2ccccc12)Nc1ccc2c(c1)OCCO2
  0.3%, ., 8.2%, -18.2%, -5.2%, 0.9%
33. N#Cc1c(/N=C/c2ccc(-c3ccc(C(=O)O)c(Cl)c3)o2)sc2c1CCCC2
  4.7%, 2.3%, ., 3.9%, -0.3%, 35.5µM*
34. N#Cc1c(/N=C/c2ccc(-c3ccccc3C(=O)O)o2)sc2c1CCCC2
  20.5%, ?, -45.2%, ?, -1.9%, -1.0%
35. COc1cccc(-n2ccnc2SCC(=O)Nc2cccc3ccccc23)c1
  3.0%, ., -0.3%, ., 6.7%, -1.6%

Screening results: PubChem, National Center for Advancing Translational Sciences (NCATS)
